Target: histone deacetylase isolated from rat liver
Test: Histone deacetylase inhibition assay with fluorescent substrate MAL, HPLC determination
Type: biochemical
Details: 37° C. 90 minutes, IC50 from five dilutions, read-out: HDAC

CC(/C=C/C(=O)NO)=C\[C@@H](C)C(=O)c1ccc(N(C)C)cc1 [trichostatin]
IC50: 30 nM

Reference: patent US6693132B2, “Methods for using alkanoyloxymethyl esters” (Beacon Laboratories, Inc., priority 2000, dated 2004)
